The chains behind the UniProt entries cited, without tags or fusion partners.
UniProt Q9UHP3, whole entry: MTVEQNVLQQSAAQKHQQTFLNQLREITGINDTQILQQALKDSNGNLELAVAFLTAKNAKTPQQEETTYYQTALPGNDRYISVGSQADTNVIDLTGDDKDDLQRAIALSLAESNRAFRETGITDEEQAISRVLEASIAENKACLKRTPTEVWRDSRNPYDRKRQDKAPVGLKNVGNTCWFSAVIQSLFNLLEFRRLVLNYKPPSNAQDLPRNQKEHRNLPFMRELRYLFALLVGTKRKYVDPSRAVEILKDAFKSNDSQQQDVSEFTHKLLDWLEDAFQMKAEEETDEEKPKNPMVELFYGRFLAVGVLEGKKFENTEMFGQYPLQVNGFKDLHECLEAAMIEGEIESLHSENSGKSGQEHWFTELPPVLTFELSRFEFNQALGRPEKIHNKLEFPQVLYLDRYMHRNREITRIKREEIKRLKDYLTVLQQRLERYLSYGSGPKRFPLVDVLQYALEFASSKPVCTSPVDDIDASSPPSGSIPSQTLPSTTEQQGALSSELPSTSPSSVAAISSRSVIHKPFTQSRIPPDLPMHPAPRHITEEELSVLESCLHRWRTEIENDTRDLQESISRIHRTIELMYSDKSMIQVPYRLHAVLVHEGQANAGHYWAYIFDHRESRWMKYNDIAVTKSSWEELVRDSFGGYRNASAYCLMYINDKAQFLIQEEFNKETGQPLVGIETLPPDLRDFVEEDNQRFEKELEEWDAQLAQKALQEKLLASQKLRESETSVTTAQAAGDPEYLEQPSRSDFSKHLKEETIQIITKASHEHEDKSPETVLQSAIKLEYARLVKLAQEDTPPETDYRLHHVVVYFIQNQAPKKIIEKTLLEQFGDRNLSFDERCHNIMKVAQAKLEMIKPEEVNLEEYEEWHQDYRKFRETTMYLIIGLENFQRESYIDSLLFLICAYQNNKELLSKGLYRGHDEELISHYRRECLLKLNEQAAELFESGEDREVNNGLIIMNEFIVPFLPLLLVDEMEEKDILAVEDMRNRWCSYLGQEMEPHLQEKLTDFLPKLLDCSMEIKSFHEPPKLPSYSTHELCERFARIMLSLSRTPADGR
UniProt Q96RU2, whole entry: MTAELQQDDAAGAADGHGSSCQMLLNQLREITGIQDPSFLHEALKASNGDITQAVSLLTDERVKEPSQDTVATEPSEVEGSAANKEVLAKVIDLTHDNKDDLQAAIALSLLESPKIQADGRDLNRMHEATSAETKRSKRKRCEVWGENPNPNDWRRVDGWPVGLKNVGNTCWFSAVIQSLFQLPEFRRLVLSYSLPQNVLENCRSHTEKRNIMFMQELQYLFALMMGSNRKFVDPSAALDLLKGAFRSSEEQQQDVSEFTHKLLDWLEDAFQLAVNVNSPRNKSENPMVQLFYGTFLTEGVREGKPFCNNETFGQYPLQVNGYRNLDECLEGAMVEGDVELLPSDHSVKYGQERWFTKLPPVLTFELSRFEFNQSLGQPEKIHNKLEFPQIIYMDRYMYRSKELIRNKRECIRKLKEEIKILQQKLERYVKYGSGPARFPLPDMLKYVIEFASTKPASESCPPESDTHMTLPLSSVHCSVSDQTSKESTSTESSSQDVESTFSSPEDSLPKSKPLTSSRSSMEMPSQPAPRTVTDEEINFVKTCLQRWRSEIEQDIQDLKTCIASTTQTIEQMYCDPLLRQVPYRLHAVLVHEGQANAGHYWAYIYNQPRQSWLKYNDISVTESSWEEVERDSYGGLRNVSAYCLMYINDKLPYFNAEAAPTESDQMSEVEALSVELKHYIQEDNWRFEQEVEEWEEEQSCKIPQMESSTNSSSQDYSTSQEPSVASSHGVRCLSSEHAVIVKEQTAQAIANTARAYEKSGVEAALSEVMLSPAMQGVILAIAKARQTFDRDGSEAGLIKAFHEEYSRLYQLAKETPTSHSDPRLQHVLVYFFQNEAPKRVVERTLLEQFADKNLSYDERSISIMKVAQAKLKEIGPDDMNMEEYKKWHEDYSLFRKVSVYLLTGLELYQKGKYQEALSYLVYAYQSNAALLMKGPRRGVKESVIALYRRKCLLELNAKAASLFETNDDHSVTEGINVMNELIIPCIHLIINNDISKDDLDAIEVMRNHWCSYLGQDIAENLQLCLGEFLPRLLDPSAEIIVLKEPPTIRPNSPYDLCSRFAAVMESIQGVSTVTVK

In patent US11524966B1 (Valo Early Discovery, Inc., priority 2017, dated 2022):

Experiments:
[1] = target: USP25 (USP25-His6, Boston Biochem E-546) (Homo sapiens, UniProt Q9UHP3); assay: Ubiquitin-Rhodamine 110 Assay for USP25 Activity, Example A-2; assay type: biochemical; conditions: read-out: USP25 A-2 IC50 range
[2] = target: USP28 (His-tagged USP28-FL-mammalian) (Homo sapiens, UniProt Q96RU2); assay: Ubiquitin-Rhodamine 110 Assay for USP28 Activity, Example A-1(a); conditions: read-out: USP28 A-1(a) IC50 range

[2H]C1([2H])c2c(F)cc(N3CCNCC3)cc2OC[C@@H]1NC(=O)c1sc2nc(C)ccc2c1N
IC50 [1]: 200 to 2000 nM
IC50 [2]: 1 to 50 nM

[2H]C1([2H])c2c(F)cc(N3CCNCC3)cc2OC[C@H]1NC(=O)c1sc2nc(C)ccc2c1N (single isomer, unassigned)
IC50 [1]: > 2000 nM
IC50 [2]: 200 to 2000 nM
